Results published in patent publication US10092613B2 (NATUREX, S.A., priority 2008, dated 2018).

Experiment: Urinary excretion of CGA and metabolites after 400 mg green coffee extract, ten volunteers
Assay type: in vivo, human
Conditions: subject 6, 0-8 h after consumption
Description: In a further phase of the study, ten non-smoker volunteers (22-55 y), five male and five female, were recruited. Subjects were instructed to avoid consumption of phenolic-containing foods during the 48 h prior to the study. They were asked to eat only animal foods, refined cereal foods and artificial beverages. On the day of the study, after 10-12 h overnight fasting, an I.V. catheter was inserted into the antecubital vein and a baseline heparinized blood sample was obtained. […] Blood samples were collected into heparin-containing tubes. Baseline blood aliquots were used to determine hematocrit and hemoglobin levels by standard methods. Plasma samples were obtained by centrifugation of the blood samples immediately after being drawn. Urine samples were also collected at baseline interval (minus 2-0 h) and at intervals of 0-2 h; 2-4 h; 4-6 h and 6-8 h after coffee consumption into appropriate plastic containers. Total urine volume was measured for each collection period. Plasma and urine aliquots for determination of CGA were acidified with HCl and kept frozen in liquid nitrogen until analyses. Urine aliquots for determination of creatinine were acidified with HCl and kept at −20° C. until analyses.
Results of CGA and phenolic acids in urine were normalized by creatinine excretion.

O=C(O)c1cc(O)c(O)c(O)c1 [Gallic Acid] gave a total urinary excretion of 115.87 µmol.
